pEC50: −log10 of the molar value.
Target: T1, TLR7 (Homo sapiens, UniProt Q9NYK1)
T1 construct: expressed in transfected cells; host or cells: HEK293 (HEK-Blue-7 cells)
T1 sequence (Q9NYK1 27-1049): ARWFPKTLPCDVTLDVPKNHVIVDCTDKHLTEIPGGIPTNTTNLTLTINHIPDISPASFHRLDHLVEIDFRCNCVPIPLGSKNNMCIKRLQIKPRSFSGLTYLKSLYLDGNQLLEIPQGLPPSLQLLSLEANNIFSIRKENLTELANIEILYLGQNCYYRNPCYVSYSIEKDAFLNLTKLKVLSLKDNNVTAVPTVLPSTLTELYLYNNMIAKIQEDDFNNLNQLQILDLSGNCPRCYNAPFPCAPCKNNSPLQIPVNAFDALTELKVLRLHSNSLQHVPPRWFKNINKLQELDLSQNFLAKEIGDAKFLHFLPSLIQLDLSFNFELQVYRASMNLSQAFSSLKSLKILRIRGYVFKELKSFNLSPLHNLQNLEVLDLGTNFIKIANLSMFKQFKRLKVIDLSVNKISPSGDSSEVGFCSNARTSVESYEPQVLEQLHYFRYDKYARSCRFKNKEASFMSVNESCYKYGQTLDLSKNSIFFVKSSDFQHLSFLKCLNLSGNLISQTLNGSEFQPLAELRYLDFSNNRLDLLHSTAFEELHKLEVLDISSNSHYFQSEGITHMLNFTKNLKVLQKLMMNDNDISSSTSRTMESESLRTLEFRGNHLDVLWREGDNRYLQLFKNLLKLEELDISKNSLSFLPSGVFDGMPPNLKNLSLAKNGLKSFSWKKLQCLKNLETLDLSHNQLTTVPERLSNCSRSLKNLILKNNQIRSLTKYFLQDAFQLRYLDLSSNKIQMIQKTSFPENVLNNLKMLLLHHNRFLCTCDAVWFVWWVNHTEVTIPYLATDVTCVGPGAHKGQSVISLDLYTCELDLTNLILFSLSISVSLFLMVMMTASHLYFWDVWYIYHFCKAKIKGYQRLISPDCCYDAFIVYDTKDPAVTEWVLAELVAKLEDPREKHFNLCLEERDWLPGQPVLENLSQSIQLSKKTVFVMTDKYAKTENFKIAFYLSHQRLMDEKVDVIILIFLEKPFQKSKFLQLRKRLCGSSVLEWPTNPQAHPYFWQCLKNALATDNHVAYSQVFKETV
Assay: TLR7 reporter gene assay (NF-κB induction, HEK-Blue-7 cells), agonism
Format: cell-based
Details: read-out: EC50 (agonistic activity)
Excerpt: NF-κB induction: The induction of NF-κB was quantified using HEK-Blue-7 cells and HEK-Blue-8 cells as previously described by us.^8,24 HEK293 cells were stably transfected with human TLR7 (or human TLR8), MD2, and secreted alkaline phosphatase (sAP), and were maintained in HEK-Blue™ Selection medium containing zeocin and normocin. Stable expression of secreted alkaline phosphatase (sAP) under control of NF-κB/AP-1 promoters is inducible by the TLR7 (or TLR8) agonists, and extracellular sAP in the supernatant is proportional to NF-κB induction. HEK-Blue cells were incubated at a density of […] in a volume of 80 μL/well, in 384-well, flat-bottomed, cell culture-treated microtiter plates until confluency was achieved, and subsequently graded concentrations of stimuli. sAP was assayed spectrophotometrically using an alkaline phosphatase-specific chromogen (present in HEK-detection medium as supplied by the vendor) at 620 nm.
The induction of NF-κB was quantified using HEK-Blue-3, HEK-Blue-7 and HEK-Blue-8 cells as previously described by us.^8,24,51 HEK293 cells were stably transfected with human TLR3 (or human TLR7 or human TLR8), MD2, and secreted alkaline phosphatase (sAP), and were maintained in HEK-Blue™ Selection medium containing zeocin and normocin. […]

pEC50: 6.96
Structure (SMILES): CCCCc1nc2c(N)nc3ccccc3c2n1Cc1cccc(CN)c1 [Compound 7c, 1-(3-(Aminomethyl)benzyl)-2-butyl-1H-imidazo[4,5-c]quinolin-4-amine]
